Values of other authors as cited in US20220265830A1, “LONG-ACTING FORMULATIONS AND VEHICLES” (DURECT CORPORATION, priority 2019, published 2022).

Details: IM; cited from earlier work

## C=CCN1CC[C@]23c4c5ccc(O)c4O[C@H]2C(=O)CC[C@@]3(O)[C@H]1C5 [Naloxone]
  Half-life: IM 1.24 hrs
